Assay results reported in PubChem BioAssay AID1454 (National Center for Advancing Translational Sciences (NCATS), 2008).
The entries are a selection whose mix differs from that of the whole data set. Results filed as inconclusive are left out. Some salts or complexes appear as unconnected parts, following the source record. Active and inactive are the calls of the source. Calls come from the whole dose curve; as a rule, active = well fitted inhibition curve with a large enough effect; inconclusive = small, poorly fitted or top-dose-only effect, or effect the other way; inactive = flat fitted curve, though single readings scatter.

assay: qHTS Assay for Inhibitors of the ERK Signaling Pathway using a Homogeneous Screening Assay; Stimulation with EGF; details: HEK293-V1b, EGF-stimulated phospho-ERK AlphaScreen; at 11.5 µM unless noted;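 note: plate controls were stimulated vehicle wells for no effect and unstimulated vehicle basal for full effect; nearly all actives have a fitted effect of over 55% in size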

Structure (SMILES) | activity change, negative = inhibition
O=C(OC1CN2CCC1CC2)C1c2ccccc2C=Cc2ccccc21 (stereo not drawn) | inactive: 8.41%
O=C(O)c1cccc(Nc2c([N+](=O)[O-])cc([N+](=O)[O-])cc2[N+](=O)[O-])c1 | inactive: -6.35% [at 57.5 µM]
COc1ccc(C(=O)NCC2(N3CCOCC3)CCCCC2)cc1OC | inactive: 4.95%
N#Cc1ccc(C(=O)NCC2(N3CCCCC3)CCCCC2)cc1 | inactive: -8.26%
CCOC(=O)C(CC)C1=NC(C)(C)Cc2ccccc21.O=[N+]([O-])c1cc([N+](=O)[O-])c(O)c([N+](=O)[O-])c1 (stereo not drawn) | inactive: -10.7% [at 57.5 µM]
CCN1CCC(Nc2cccc(F)c2)CC1 | inactive: 6.36%
CN(C)c1ccc(C(=O)NCC2(N3CCCCC3)CCCCC2)cc1 | inactive: -3.77%
COc1cc(OC)cc(C(=O)NCC2(N3CCOCC3)CCCCC2)c1 | inactive: -5.12%
CCCOc1ccc(C)cc1CN(CCCl)CCCl | inactive: 5.09% [at 57.5 µM]
CC(C)(C)OC(=O)N1CCC(Nc2ccccc2)CC1 | inactive: -6.53%
CCOC(=O)N1CCC(Nc2ccc(OC)cc2)CC1 | inactive: -0.842%
N#CC1(Nc2ccccc2)CCN(Cc2ccccc2)CC1 | inactive: 0.82% [at 57.5 µM]
COc1ccc(C(=O)NCC2(N3CCCCC3)CCCCC2)c(OC)c1OC | inactive: -3.78%
Cc1ccc(OCC(C)C)c(CN(CCCl)CCCl)c1 | inactive: 16.3% [at 57.5 µM]
CCOc1ccc(C)cc1CN(CCCl)CCCl | inactive: -1.76% [at 57.5 µM]
O=[N+]([O-])c1cc([N+](=O)[O-])c(NCC2CCS(=O)(=O)C2)c([N+](=O)[O-])c1 (stereo not drawn) | inactive: 0.213%
CN1CCN(CCOC(=O)C(O)(c2ccccc2)c2ccccc2)CC1 | inactive: -7.16%
COc1ccc(NC2CCN(C(=O)OC(C)(C)C)CC2)cc1 | inactive: -2.24%
O=C(NCC1(N2CCCCC2)CCCCC1)c1cccc([N+](=O)[O-])c1 | inactive: 4.45%
COc1ccc2c(c1O)-c1c(O)c(OC)cc3c1[C@H](C2)[N+](C)(C)CC3.O=[N+]([O-])c1cc([N+](=O)[O-])c([O-])c([N+](=O)[O-])c1[O-] | inactive: -1.29% [at 57.5 µM]
O=C(OC1CN2CCC1CC2)c1ccc([N+](=O)[O-])cc1 (stereo not drawn) | inactive: -0.676% [at 57.5 µM]
COc1ccc(CN(CCCl)CCCl)cc1Cl | inactive: 30.4%
CN(C)c1cccc(C(=O)NCC2(N3CCCCC3)CCCCC2)c1 | inactive: -5.94%
